System: Jurkat
Test: Antiproliferative activity against human Jurkat T cells after 48 hrs by MTT assay
Assay type: functional, cell-based

SMILES | Activity
C/C(=C/c1ccc(C(=O)O)cc1)c1ccc(O)c(C23CC4CC(CC(C4)C2)C3)c1 | Dose-dependent effect
COCCOCOc1ccc(C(=O)/C=C/c2ccc(C(=O)O)cc2)cc1C12CC3CC(CC(C3)C1)C2 | Dose-dependent effect
